Target: T1, matrix metalloprotease MMP 9 (Homo sapiens, UniProt P14780)
T1 construct: purchased Calbiochem, Germany
Assay: Cleavage of the conjugate by activated MMP 9, HPLC gel chromatography
Format: biochemical
Settings: 200 μL of 100 μM conjugate, 30 minutes at 37° C., trypsine/aprotinine-activated MMP 9 (2 mU); detection at 495 nm
Protocol: The absorption at 495 nm is also plotted versus the retention time in min. (A) Chromatogram of the conjugate HSA-Cys^34-2 before incubation with MMP 9 (t=0). (B) Chromatogram of the conjugate HSA-Cys^34-2 after incubation with MMP 9 for 30 min (t=30 min) and also showing a peak for fragment DOXO-Gln-Gly-Ala-Ile residues 1-4 of SEQ ID No. 9.
is recognized by the matrix metalloprotease MMP 9 and cleaved between isoleucine and glycine. This was shown by the following experiment: 200 μL of a 100 μM solution of HSA-Cys^34-2 was incubated for 30 minutes at 37° C. with trypsine/aprotinine-activated MMP 9 (2 mU, from Calbiochem, Germany).

Sequences of proteins named here, by UniProt entry; tags and fusion partners are left off. Residues count along the entry.
UniProt P14780, 107-707 limits assumed: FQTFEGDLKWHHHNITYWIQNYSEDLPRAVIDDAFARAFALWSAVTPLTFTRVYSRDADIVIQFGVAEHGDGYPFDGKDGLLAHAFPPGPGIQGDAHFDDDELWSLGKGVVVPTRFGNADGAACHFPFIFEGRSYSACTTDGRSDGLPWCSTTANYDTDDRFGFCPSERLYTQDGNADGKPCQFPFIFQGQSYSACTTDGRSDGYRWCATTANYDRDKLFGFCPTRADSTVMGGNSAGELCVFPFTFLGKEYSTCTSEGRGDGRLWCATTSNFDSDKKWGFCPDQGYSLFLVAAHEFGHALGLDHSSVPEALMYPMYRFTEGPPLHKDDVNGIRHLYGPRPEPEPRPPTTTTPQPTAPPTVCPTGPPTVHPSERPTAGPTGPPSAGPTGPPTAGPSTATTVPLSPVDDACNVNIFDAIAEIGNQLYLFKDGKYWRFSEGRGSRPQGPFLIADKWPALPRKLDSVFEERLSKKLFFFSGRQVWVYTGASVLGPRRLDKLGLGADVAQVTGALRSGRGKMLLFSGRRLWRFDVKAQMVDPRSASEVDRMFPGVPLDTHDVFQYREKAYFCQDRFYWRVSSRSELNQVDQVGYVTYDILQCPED

HSA-Cys^34-2
Liberation of DOXO-Gln-Gly-Ala-Ile by cleavage with MMP 9: liberation of DOXO-Gln-Gly-Ala-Ile due to cleavage with MMP 9 was confirmed

— patent US7445764B1, “Carrier-drug conjugate” (priority 1999, dated 2008)
